Like-named read-outs stand apart in the source and are kept apart here.
Molecular target: T1, human GPR84 (Homo sapiens, UniProt P04899+Q9NQS5)
T1 construct: expressed in transfected cells; host or cells: Flp-In T-REx 293 cells, doxycycline-induced; membrane preparations
Assay type: biochemical

By UniProt entry, the sequences of proteins in these tests, tags left out. Where a name states a change or a piece, a line headed by the entry shows the natural chain unless it says otherwise.
UniProt P04899: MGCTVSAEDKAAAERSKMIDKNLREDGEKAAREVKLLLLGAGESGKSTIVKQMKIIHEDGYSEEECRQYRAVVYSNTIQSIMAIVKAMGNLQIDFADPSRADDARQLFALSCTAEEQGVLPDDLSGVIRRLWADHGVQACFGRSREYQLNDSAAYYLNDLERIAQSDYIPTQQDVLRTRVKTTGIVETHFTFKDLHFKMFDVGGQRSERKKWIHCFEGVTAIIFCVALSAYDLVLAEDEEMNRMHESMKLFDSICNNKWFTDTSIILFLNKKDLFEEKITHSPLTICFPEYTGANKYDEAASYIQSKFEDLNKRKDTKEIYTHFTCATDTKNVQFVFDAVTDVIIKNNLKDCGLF
UniProt Q9NQS5: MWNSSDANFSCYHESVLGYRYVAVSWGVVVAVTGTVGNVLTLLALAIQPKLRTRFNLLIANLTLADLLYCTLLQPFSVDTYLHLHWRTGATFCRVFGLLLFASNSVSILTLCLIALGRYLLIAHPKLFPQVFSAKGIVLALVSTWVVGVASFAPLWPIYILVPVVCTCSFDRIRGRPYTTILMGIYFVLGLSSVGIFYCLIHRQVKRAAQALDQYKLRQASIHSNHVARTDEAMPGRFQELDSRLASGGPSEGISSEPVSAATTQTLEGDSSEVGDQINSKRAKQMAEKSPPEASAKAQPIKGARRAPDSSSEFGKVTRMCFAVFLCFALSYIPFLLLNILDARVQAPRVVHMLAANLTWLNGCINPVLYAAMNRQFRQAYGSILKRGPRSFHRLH

| Compound | LLE (LLE = pIC50 – CLog P) | LLE (LLE = pIC50 – Log D7.4) |
| --- | --- | --- |
| c1ccc(-c2nnc(CCc3cccnc3)nc2-c2ccccc2)cc1 | 1.55 |  |
| c1ccc(-c2nnc(NCc3cccnc3)nc2-c2ccccc2)cc1 | 1.94 |  |
| 3-((5-Phenyl-6-(pyrimidin-2-yl)-1,2,4-triazin-3-yl)methyl)-1H-indole or 3-((6-phenyl-5-(pyrimidin-2-yl)-1,2,4-triazin-3-yl)methyl)-1H-indole | 4.57 |  |
| COc1ccc(-c2nnc(Cc3c[nH]c4ccccc34)nc2-c2ccc(OC)cc2)cc1 [Compound 1, 3-((5,6-Bis(4-methoxyphenyl)-1,2,4-triazin-3-yl)methyl)-1H-indole] | 3.24 |  |
| Fc1ccc(-c2nnc(Cc3c[nH]c4ccccc34)nc2-c2ccc(F)cc2)cc1 [Compound 5, 3-((5,6-Bis(4-fluorophenyl)-1,2,4-triazin-3-yl)methyl)-1H-indole] | 2.96 |  |
| Brc1ccc(-c2nnc(Cc3c[nH]c4ccccc34)nc2-c2ccc(Br)cc2)cc1 [Compound 7, 3-((5,6-Bis(4-bromophenyl)-1,2,4-triazin-3-yl)methyl)-1H-indole] | 1.31 |  |
| c1ccc(-c2nnc(Cc3c[nH]c4ccccc34)nc2-c2ccccn2)nc1 [Compound 8, 3-((5,6-Di(pyridin-2-yl)-1,2,4-triazin-3-yl)methyl)-1H-indole] | 3.51 |  |
| CC(C)c1nnc(Cc2c[nH]c3ccccc23)nc1C(C)C [Compound 9, 3-((5,6-Diisopropyl-1,2,4-triazin-3-yl)methyl)-1H-indole] | 1.61 |  |
| COC(=O)c1ccc(-c2nnc(Cc3c[nH]c4ccccc34)nc2-c2ccc(C(=O)OC)cc2)cc1 [Compound 10, Methyl 4-[3-(1H-Indol-3-ylmethyl)-6-(4-methoxycarbonylphenyl)-1,2,4-triazin-5-yl]benzoate] | 2.16 |  |
| c1csc(-c2nnc(Cc3c[nH]c4ccccc34)nc2-c2cccs2)c1 [Compound 11, 3-((5,6-Di(thiophen-2-yl)-1,2,4-triazin-3-yl)methyl)-1H-indole] | 3.25 |  |
| COc1ccc(-c2nnc(Cc3c[nH]c4ccc(F)cc34)nc2-c2ccc(OC)cc2)cc1 [Compound 12, 3-((5,6-Bis(4-methoxyphenyl)-1,2,4-triazin-3-yl)methyl)-5-fluoro-1H-indole] | 1.91 |  |
| COc1ccc(-c2nnc(Cc3n[nH]c4ccccc34)nc2-c2ccc(OC)cc2)cc1 [Compound 14, 3-((5,6-Bis(4-methoxyphenyl)-1,2,4-triazin-3-yl)methyl)-1H-indazole] | 2.49 |  |
| c1ccc(-c2nnc(Cc3cnc4ccccn34)nc2-c2ccccc2)cc1 [Compound 20, 3-((5,6-Diphenyl-1,2,4-triazin-3-yl)methyl)imidazo[1,2-a]pyridine] | 1.6 |  |
| Cc1cc(Cc2nnc(-c3ccccc3)c(-c3ccccc3)n2)n[nH]1 [Compound 23, 3-((5-Methyl-1H-pyrazol-3-yl)methyl)-5,6-diphenyl-1,2,4-triazine] | 2.26 |  |
| FC(F)(F)Oc1ccccc1-c1cnc(Cc2c[nH]c3ccccc23)nn1 [Compound 27, 3-((6-(2-(Trifluoromethoxy)phenyl)-1,2,4-triazin-3-yl)methyl)-1H-indole] | 1.91 |  |
| CNS(=O)(=O)c1ccc(-c2nc(Cc3c[nH]c4ccccc34)nnc2-c2ccccc2)cc1 [Compound 33, 4-(3-((1H-Indol-3-yl)methyl)-6-phenyl-1,2,4-triazin-5-yl)-N-methylbenzenesulfonamide] | 2.83 |  |
| CS(=O)(=O)c1ccc(-c2nnc(Cc3c[nH]c4ccccc34)nc2-c2ccccc2)cc1 [Compound 36, 3-((6-(4-(Methylsulfonyl)phenyl)-5-phenyl-1,2,4-triazin-3-yl)methyl)-1H-indole] | 3.12 |  |
| CC(=O)OCc1ccc(-c2nc(Cc3c[nH]c4ccccc34)nnc2-c2ccccc2)cc1 [Compound 37, 4-(3-((1H-Indol-3-yl)methyl)-6-phenyl-1,2,4-triazin-5-yl)benzyl Acetate] | 3.92 |  |
| CC(=O)OCc1ccc(-c2nnc(Cc3c[nH]c4ccccc34)nc2-c2ccccc2)cc1 [Compound 38, 4-(3-((1H-Indol-3-yl)methyl)-5-phenyl-1,2,4-triazin-6-yl)benzyl Acetate] | 3.68 |  |
| OCc1ccc(-c2nc(Cc3c[nH]c4ccccc34)nnc2-c2ccccc2)cc1 [Compound 39, (4-(3-((1H-Indol-3-yl)methyl)-6-phenyl-1,2,4-triazin-5-yl)phenyl)methanol] | 3.64 |  |
| OCc1ccc(-c2nnc(Cc3c[nH]c4ccccc34)nc2-c2ccccc2)cc1 [Compound 40, (4-(3-((1H-Indol-3-yl)methyl)-5-phenyl-1,2,4-triazin-6-yl)phenyl)methanol] | 4.24 |  |

| Compound | LLE (LLE = pIC50 – CLog P) | LLE (LLE = pIC50 – Log D7.4) |
| --- | --- | --- |
| c1ccc(-c2nnc(Cc3c[nH]c4ccccc34)nc2-c2ccc(CN3CCOCC3)cc2)cc1 [Compound 41, 4-(4-(3-((1H-Indol-3-yl)methyl)-6-phenyl-1,2,4-triazin-5-yl)benzyl)morpholine] | 3.2 |  |
| c1ccc(-c2nc(Cc3c[nH]c4ccccc34)nnc2-c2ccc(CN3CCOCC3)cc2)cc1 [Compound 42, 4-(4-(3-((1H-Indol-3-yl)methyl)-5-phenyl-1,2,4-triazin-6-yl)benzyl)morpholine] | 3.97 | 4.44 |
| CN(C)Cc1ccc(-c2nc(Cc3c[nH]c4ccccc34)nnc2-c2ccccc2)cc1 [Compound 43, 1-(4-(3-((1H-Indol-3-yl)methyl)-6-phenyl-1,2,4-triazin-5-yl)phenyl)-N,N-dimethylmethanamine] | 1.8 |  |
| CN(C)Cc1ccc(-c2nnc(Cc3c[nH]c4ccccc34)nc2-c2ccccc2)cc1 [Compound 44, 1-(4-(3-((1H-Indol-3-yl)methyl)-5-phenyl-1,2,4-triazin-6-yl)phenyl)-N,N-dimethylmethanamine] | 2.28 |  |
| CC(=O)NCc1ccc(-c2nc(Cc3c[nH]c4ccccc34)nnc2-c2ccccc2)cc1 [Compound 45, N-(4-(3-((1H-Indol-3-yl)methyl)-6-phenyl-1,2,4-triazin-5-yl)benzyl)acetamide] | 3.56 |  |
| CC(=O)NCc1ccc(-c2nnc(Cc3c[nH]c4ccccc34)nc2-c2ccccc2)cc1 [Compound 46, N-(4-(3-((1H-Indol-3-yl)methyl)-5-phenyl-1,2,4-triazin-6-yl)benzyl)acetamide] | 4.61 |  |
| CS(=O)(=O)NCc1ccc(-c2nc(Cc3c[nH]c4ccccc34)nnc2-c2ccccc2)cc1 [Compound 47, N-(4-(3-((1H-indol-3-yl)methyl)-6-phenyl-1,2,4-triazin-5-yl)benzyl)methanesulfonamide] | 3.49 |  |
| CS(=O)(=O)NCc1ccc(-c2nnc(Cc3c[nH]c4ccccc34)nc2-c2ccccc2)cc1 [Compound 48, N-(4-(3-((1H-Indol-3-yl)methyl)-5-phenyl-1,2,4-triazin-6-yl)benzyl)methanesulfonamide] | 4.38 |  |
| COC(=O)c1ccc(-c2nc(Cc3c[nH]c4ccccc34)nnc2-c2ccccc2)cc1 [Compound 49, Methyl 4-(3-((1H-Indol-3-yl)methyl)-6-phenyl-1,2,4-triazin-5-yl)benzoate] | 2.2 |  |
| O=C(O)c1ccc(-c2nnc(Cc3c[nH]c4ccccc34)nc2-c2ccccc2)cc1 [Compound 52, 4-(3-((1H-Indol-3-yl)methyl)-5-phenyl-1,2,4-triazin-6-yl)benzoic Acid] | 2.65 |  |
| O=C(O)c1cccc(-c2nc(Cc3c[nH]c4ccccc34)nnc2-c2ccccc2)c1 [Compound 55, 3-(3-((1H-Indol-3-yl)methyl)-6-phenyl-1,2,4-triazin-5-yl)benzoic Acid] | 0.58 |  |
| c1ccc(-c2nnc(Cc3c[nH]c4cnccc34)nc2-c2cnccn2)cc1 [Compound 59, 3-((6-Phenyl-5-(pyrazin-2-yl)-1,2,4-triazin-3-yl)methyl)-1H-pyrrolo[2,3-c]pyridine] | 3.93 |  |
| c1ccc(-c2nc(Cc3c[nH]c4cnccc34)nnc2-c2cnccn2)cc1 [Compound 60, 3-((5-Phenyl-6-(pyrazin-2-yl)-1,2,4-triazin-3-yl)methyl)-1H-pyrrolo[2,3-c]pyridine] | 4.46 |  |
| c1ccc(-c2nnc(Cc3c[nH]c4cnccc34)nc2-c2ccnnc2)cc1 [Compound 61, 3-((6-Phenyl-5-(pyridazin-4-yl)-1,2,4-triazin-3-yl)methyl)-1H-pyrrolo[2,3-c]pyridine] | 4.78 |  |
| c1ccc(-c2nc(Cc3c[nH]c4cnccc34)nnc2-c2ccnnc2)cc1 [Compound 62, 3-((5-Phenyl-6-(pyridazin-4-yl)-1,2,4-triazin-3-yl)methyl)-1H-pyrrolo[2,3-c]pyridine] | 5.15 |  |
| c1ccc(-c2nnc(Cc3c[nH]c4cnccc34)nc2-c2ccc(CN3CCOCC3)cc2)cc1 [Compound 63, 4-(4-(3-((1H-Pyrrolo[2,3-c]pyridin-3-yl)methyl)-6-phenyl-1,2,4-triazin-5-yl)benzyl)morpholine] | 3.92 |  |
| COC(=O)c1ccc(-c2nc(Cc3c[nH]c4cnccc34)nnc2-c2ccccc2)cc1 [Compound 65, Methyl 4-(3-((1H-Pyrrolo[2,3-c]pyridin-3-yl)methyl)-6-phenyl-1,2,4-triazin-5-yl)benzoate] | 3.79 |  |
| COC(=O)c1ccc(-c2nnc(Cc3c[nH]c4cnccc34)nc2-c2ccccc2)cc1 [Compound 66, Methyl 4-(3-((1H-Pyrrolo[2,3-c]pyridin-3-yl)methyl)-5-phenyl-1,2,4-triazin-6-yl)benzoate] | 3.44 |  |
| CNC(=O)c1ccc(-c2nc(Cc3c[nH]c4cnccc34)nnc2-c2ccccc2)cc1 [Compound 67, 4-(3-((1H-Pyrrolo[2,3-c]pyridin-3-yl)methyl)-6-phenyl-1,2,4-triazin-5-yl)-N-methylbenzamide] | 3.94 |  |
| CNC(=O)c1ccc(-c2nnc(Cc3c[nH]c4cnccc34)nc2-c2ccccc2)cc1 [Compound 68, 4-(3-((1H-Pyrrolo[2,3-c]pyridin-3-yl)methyl)-5-phenyl-1,2,4-triazin-6-yl)-N-methylbenzamide] | 4.75 | 4.58 |
| O=C(NCCO)c1ccc(-c2nc(Cc3c[nH]c4cnccc34)nnc2-c2ccccc2)cc1 [Compound 69, 4-(3-((1H-Pyrrolo[2,3-c]pyridin-3-yl)methyl)-6-phenyl-1,2,4-triazin-5-yl)-N-(2-hydroxyethyl)benzamide] | 4.86 |  |

Reference: publication PMC9421653 (Journal of Medicinal Chemistry, 2022)
